Results published in paper PMC7575509, “Phase I study of DFP-11207, a novel oral fluoropyrimidine with reasonable AUC and low Cmax and improved tolerability, in patients with solid tumors” (Investigational New Drugs, 2020).

Assay: Plasma pharmacokinetics, Food Effect Study (fed vs fasted)
Conditions: DFP-11207 300 mg twice daily; for Tmax: human, plasma, oral, 300 mg, Median (Min, Max)

| Tmax, Median (Min, Max) (Steady state dose, Fed) | Tmax (Initial dose, Fasted) | Tmax (Initial dose, Fed) | Tmax (Steady state dose, Fasted) | Tmax (Steady state dose, Fed) | SMILES |
| --- | --- | --- | --- | --- | --- |
| 5; 2.0 (2.0, 10) h | 10 h | 10 h | 6 h |  | O=c1[nH]cc(F)c(=O)[nH]1 [5-FU, 5-fluorouracil, reference compound] |
|  | 7 h | 4 h | 2 h | 2 h | Oc1cc(O)c(Cl)cn1 [CDHP, 5-chloro-2,4-dihydroxypyridine] |
|  | 4 h | 10 h | 2 h | 2 h | O=C(O)c1cc(O)nc(O)c1 [CTA, citrazinic acid] |
|  | 36 h | 10 h | 10 h | 10 h | CCOCn1cc(F)c(=O)[nH]c1=O [EM-FU, 1-ethoxymethyl-5-fluorouracil] |
